Our source for the Kd values is PMC6016778 (Proceedings of the National Academy of Sciences of the …, 2018).

By UniProt entry, the sequences of proteins in these tests, tags left out. Residues count along the entry.
UniProt Q6ZNE5, 88-178: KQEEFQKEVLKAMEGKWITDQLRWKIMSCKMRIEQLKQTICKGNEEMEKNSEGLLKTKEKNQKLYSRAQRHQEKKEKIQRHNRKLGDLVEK

The experiment deals with Atg14L coiled-coil region (UniProt Q6ZNE5 88-178). In words: ITC.

As to LQRELKELALEEERLIQELEDVEKNRKVVAENLEKVQAEAERLDQEEAQY (domain or fragment) [Beclin 1 CC1 (N-terminal half of the Beclin 1 coiled-coil domain, residues 178–227)], the equilibrium dissociation constant (Kd) is ~29.3 µM.
